IC50 data for 1 compound are collected here from US10968462B2, “Plants having increased tolerance to herbicides” (BASF AGRO B.V., priority 2013, dated 2021).

Amino acid sequences for entries named in this document (tags omitted). Residues count along the entry.
UniProt Q0NZW9, 1-534: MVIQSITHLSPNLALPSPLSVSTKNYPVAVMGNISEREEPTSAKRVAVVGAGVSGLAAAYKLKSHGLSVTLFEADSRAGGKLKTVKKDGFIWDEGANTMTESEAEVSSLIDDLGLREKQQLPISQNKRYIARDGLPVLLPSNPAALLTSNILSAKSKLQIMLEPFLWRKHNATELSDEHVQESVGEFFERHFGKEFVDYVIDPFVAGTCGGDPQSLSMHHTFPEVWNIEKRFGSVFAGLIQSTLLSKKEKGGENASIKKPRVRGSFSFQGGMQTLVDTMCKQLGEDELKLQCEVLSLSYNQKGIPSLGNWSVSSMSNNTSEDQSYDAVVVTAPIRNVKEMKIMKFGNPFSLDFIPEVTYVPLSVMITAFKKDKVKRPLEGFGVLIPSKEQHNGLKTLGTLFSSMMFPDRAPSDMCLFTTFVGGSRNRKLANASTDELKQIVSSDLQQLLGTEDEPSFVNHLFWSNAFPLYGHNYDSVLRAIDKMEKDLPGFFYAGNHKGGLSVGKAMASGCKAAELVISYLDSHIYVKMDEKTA
UniProt Q0NZW9, 1-534 F420L/R128C: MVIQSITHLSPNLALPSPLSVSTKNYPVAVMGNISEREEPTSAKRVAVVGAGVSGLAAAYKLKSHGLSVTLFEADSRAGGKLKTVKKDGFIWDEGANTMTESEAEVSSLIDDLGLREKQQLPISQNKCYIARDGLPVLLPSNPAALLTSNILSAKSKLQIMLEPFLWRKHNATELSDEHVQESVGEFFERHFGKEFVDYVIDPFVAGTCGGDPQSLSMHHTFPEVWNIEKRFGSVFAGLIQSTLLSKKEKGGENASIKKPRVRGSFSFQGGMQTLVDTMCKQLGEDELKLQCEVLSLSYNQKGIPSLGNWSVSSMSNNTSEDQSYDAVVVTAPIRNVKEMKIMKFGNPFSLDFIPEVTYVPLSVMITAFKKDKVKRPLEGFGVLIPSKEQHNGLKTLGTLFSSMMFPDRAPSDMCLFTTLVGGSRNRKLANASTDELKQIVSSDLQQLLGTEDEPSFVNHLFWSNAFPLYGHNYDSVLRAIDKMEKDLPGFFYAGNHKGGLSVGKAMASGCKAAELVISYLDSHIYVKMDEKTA
UniProt Q0NZW9, 1-534 F420M/R128A: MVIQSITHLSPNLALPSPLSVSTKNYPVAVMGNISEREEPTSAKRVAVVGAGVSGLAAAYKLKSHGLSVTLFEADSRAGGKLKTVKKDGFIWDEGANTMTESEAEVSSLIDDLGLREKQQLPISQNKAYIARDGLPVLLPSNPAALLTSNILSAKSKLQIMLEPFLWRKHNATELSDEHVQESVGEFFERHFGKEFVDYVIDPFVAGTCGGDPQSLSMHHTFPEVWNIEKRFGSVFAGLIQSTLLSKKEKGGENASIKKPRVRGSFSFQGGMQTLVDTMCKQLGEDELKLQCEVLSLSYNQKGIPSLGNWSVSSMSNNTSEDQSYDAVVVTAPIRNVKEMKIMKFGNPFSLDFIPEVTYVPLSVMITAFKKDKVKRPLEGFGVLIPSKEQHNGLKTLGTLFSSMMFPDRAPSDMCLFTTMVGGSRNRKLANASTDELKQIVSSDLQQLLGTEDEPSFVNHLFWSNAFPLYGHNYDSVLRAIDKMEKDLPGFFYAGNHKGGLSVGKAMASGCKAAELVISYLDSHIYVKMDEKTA
UniProt Q0NZW9, 1-534 F420M/R128C: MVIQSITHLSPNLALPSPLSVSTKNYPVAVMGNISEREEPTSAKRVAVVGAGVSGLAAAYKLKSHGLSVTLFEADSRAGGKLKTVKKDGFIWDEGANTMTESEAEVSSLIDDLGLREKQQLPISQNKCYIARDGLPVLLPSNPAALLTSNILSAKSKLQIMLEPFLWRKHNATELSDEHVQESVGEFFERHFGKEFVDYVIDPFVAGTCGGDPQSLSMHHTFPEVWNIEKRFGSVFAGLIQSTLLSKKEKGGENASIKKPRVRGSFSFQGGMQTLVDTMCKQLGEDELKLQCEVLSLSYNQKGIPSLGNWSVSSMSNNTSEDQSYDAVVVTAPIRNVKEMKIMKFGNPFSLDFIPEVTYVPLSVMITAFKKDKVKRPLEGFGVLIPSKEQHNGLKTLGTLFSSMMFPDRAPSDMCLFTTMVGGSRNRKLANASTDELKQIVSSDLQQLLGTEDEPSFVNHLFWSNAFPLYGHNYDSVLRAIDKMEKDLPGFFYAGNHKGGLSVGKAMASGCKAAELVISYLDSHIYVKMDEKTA
UniProt Q0NZW9, 1-534 F420M/R128H: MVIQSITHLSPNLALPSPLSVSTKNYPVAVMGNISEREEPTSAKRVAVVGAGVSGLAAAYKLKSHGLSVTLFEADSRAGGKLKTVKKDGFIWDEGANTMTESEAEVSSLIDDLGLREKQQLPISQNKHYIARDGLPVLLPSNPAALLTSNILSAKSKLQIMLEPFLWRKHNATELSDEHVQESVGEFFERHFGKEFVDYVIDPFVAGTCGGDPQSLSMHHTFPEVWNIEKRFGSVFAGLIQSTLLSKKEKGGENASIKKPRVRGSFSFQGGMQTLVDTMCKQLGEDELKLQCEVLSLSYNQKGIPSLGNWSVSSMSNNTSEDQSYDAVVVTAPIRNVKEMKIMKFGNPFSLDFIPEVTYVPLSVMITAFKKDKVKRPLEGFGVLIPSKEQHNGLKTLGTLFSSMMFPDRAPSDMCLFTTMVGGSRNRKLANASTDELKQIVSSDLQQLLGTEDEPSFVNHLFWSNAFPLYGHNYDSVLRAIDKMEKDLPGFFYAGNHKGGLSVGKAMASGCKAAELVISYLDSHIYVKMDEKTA
UniProt Q0NZW9, 1-534 F420M/R128M: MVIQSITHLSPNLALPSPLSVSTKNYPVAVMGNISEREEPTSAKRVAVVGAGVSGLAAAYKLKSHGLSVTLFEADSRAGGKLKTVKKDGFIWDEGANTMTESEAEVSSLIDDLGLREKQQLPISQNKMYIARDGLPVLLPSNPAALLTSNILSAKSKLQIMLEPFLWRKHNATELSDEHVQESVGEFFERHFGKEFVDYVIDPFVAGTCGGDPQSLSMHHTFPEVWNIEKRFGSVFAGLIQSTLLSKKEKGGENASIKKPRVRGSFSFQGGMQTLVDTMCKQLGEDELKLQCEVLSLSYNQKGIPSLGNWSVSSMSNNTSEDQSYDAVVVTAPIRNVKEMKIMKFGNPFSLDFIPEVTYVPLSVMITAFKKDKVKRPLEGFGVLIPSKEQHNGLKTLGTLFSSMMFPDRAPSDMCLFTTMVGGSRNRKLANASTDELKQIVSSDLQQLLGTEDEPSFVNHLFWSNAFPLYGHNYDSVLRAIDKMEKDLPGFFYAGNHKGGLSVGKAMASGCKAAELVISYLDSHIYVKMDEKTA
UniProt Q0NZW9, 1-534 F420M/R128V: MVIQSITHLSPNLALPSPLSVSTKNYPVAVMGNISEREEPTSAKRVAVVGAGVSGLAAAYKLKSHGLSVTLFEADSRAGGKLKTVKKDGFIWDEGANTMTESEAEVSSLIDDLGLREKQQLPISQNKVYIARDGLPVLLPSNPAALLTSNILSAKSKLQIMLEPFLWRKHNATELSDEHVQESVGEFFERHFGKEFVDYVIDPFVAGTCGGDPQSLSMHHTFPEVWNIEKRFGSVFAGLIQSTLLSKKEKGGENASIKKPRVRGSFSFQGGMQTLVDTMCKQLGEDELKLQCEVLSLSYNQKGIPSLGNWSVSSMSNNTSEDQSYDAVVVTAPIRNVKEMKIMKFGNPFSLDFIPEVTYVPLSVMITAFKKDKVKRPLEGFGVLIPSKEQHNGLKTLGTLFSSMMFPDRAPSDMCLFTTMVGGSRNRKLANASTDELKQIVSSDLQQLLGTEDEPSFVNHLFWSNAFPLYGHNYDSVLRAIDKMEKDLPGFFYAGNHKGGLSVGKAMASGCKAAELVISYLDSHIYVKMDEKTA
UniProt Q0NZW9, 1-534 F420V/R128A: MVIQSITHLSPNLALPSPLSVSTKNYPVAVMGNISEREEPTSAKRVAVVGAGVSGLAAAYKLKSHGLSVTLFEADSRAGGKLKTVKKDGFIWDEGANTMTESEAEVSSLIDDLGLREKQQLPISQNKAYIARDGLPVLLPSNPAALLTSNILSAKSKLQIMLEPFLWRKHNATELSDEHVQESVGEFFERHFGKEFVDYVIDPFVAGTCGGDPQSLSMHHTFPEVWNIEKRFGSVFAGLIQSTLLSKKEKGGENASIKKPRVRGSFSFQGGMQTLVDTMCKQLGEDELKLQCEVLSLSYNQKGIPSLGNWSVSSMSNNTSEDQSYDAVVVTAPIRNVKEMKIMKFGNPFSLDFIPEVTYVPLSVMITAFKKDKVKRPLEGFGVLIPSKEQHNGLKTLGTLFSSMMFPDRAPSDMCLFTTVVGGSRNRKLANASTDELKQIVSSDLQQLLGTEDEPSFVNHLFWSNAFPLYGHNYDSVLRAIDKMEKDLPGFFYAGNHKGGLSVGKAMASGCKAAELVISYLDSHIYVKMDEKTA
UniProt Q0NZW9, 1-534 F420V/R128C: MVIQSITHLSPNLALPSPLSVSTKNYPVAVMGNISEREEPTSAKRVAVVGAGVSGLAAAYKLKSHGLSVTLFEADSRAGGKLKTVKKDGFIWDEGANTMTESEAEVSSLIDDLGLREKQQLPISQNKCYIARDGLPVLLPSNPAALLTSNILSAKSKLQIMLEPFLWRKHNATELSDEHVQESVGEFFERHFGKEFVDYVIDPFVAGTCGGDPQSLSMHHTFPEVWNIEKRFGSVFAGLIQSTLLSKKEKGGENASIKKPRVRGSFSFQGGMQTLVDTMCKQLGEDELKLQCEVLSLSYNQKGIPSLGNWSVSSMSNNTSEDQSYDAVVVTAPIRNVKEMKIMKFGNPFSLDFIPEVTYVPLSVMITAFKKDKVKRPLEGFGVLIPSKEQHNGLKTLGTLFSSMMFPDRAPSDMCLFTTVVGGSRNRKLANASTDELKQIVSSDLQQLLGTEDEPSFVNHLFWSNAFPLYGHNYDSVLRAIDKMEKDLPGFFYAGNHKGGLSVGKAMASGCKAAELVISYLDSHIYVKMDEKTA
UniProt Q0NZW9, 1-534 F420V/R128I: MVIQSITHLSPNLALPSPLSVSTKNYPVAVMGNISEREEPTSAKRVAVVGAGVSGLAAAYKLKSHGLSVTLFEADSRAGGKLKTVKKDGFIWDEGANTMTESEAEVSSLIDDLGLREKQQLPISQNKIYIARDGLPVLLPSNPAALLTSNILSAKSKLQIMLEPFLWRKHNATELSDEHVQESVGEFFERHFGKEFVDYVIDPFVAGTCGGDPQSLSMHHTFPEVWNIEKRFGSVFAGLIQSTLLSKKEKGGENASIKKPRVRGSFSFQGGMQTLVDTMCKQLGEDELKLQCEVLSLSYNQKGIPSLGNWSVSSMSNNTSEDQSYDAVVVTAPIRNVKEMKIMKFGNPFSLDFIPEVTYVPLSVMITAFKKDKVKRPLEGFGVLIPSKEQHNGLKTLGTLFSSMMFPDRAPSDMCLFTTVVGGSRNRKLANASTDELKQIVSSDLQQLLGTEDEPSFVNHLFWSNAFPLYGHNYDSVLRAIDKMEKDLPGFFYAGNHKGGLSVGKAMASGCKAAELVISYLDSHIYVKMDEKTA

Common to all, as to assay: PPO enzyme assay (recombinant), IC50 on wild type and amino acid substituted PPO2
Format in all cases: biochemical, Amaranthus tuberculatum

In assay [1] the target is wild type and amino acid substituted PPO enzyme (PPO2) of SEQ ID NO: 2 (AMARE) (Amaranthus tuberculatus, UniProt Q0NZW9, R128C/F420L, form not given). The note with it: mutation R128C, F420L.
Assay [2] concerns the target wild type and amino acid substituted PPO enzyme (PPO2) of SEQ ID NO: 2 (AMARE) (Amaranthus tuberculatus, UniProt Q0NZW9, R128M/F420M, form not given). The note with it: mutation R128M, F420M.
For assay [3], the target named is wild type and amino acid substituted PPO enzyme (PPO2) of SEQ ID NO: 2 (AMARE) (Amaranthus tuberculatus, UniProt Q0NZW9, R128C/F420V, form not given). The note with it: mutation R128C, F420V.
The target of assay [4] is wild type and amino acid substituted PPO enzyme (PPO2) of SEQ ID NO: 2 (AMARE) (Amaranthus tuberculatus, UniProt Q0NZW9, R128C/F420M, form not given). The note with it: mutation R128C, F420M.
Assay [5] concerns the target wild type and amino acid substituted PPO enzyme (PPO2) of SEQ ID NO: 2 (AMARE) (Amaranthus tuberculatus, UniProt Q0NZW9). The note with it: PPO enzyme WT.
The target in assay [6] is wild type and amino acid substituted PPO enzyme (PPO2) of SEQ ID NO: 2 (AMARE) (Amaranthus tuberculatus, UniProt Q0NZW9, R128A/F420M, form not given). The note with it: mutation R128A, F420M.
Assay [7] deals with wild type and amino acid substituted PPO enzyme (PPO2) of SEQ ID NO: 2 (AMARE) (Amaranthus tuberculatus, UniProt Q0NZW9, R128I/F420V, form not given). The note with it: mutation R128I, F420V.
The target in assay [8] is wild type and amino acid substituted PPO enzyme (PPO2) of SEQ ID NO: 2 (AMARE) (Amaranthus tuberculatus, UniProt Q0NZW9, R128A/F420V, form not given). The note with it: mutation R128A, F420V.
The target of assay [9] is wild type and amino acid substituted PPO enzyme (PPO2) of SEQ ID NO: 2 (AMARE) (Amaranthus tuberculatus, UniProt Q0NZW9, R128V/F420M, form not given). The note with it: mutation R128V, F420M.
Assay [10] deals with wild type and amino acid substituted PPO enzyme (PPO2) of SEQ ID NO: 2 (AMARE) (Amaranthus tuberculatus, UniProt Q0NZW9, R128H/F420M, form not given). The note with it: mutation R128H, F420M.

One may read the IC50 as the concentration that inhibits the measured activity by half. As for `C#CCOc1cc(-n2nc(C(C)(C)C)oc2=O)c(Cl)cc1Cl`, the IC50 in assay [1] was found to be 3.01 µM; in [2], 0.0333 µM; in assay [3], 0.146 µM; in assay [4] it was 0.0624 µM; in [5], 0.000364 µM; in assay [6], 0.0197 µM. Further, the half-inhibitory concentration (IC50) in assay [7] is 0.0276 µM; in [8], 0.0438 µM; in assay [9], 0.034 µM; in assay [10], 0.0132 µM.
